Measurements: article PMC5553193

Biological target: Man-WYDLF (L37)
Assay: inhibition of binding to horseradish peroxidase

Substance: concanavalin A (from UniProt P02866)
- IC50: 4 µM
